Key:
[1] = molecular target: T1, hNav 1.1 sodium channel isoform (Homo sapiens, UniProt P35498); assay: hNav1.1 whole-cell voltage-clamp assay; format: cell-based; details: use-dependent block, 10 Hz, read-out: NAV1.1* UDB-10HZ
T1 construct: expressed in transfected cells; host or cells: HEK293, transient transfection (Qiagen Superfect)

[2] = molecular target: T2, hNav 1.2 sodium channel isoform (Homo sapiens, UniProt Q99250); assay: hNav1.2 whole-cell voltage-clamp assay; format: cell-based; details: use-dependent block, 10 Hz, read-out: NAV1.2* UDB-10HZ
T2 construct: expressed in transfected cells
Method: Wild-type (WT) cDNA stably transfected in Chinese hamster ovary (CHO) cells is used to record INa. Unless otherwise noted, all reagents are purchased from Sigma-Aldrich (St Louis, Mo., U.S.A.).
Whole-cell voltage-clamp recordings are used to measure the biophysical properties of WT. […] Cells are allowed to stabilize for 10 min after establishment of the whole-cell configuration before current is measured. Series resistance is compensated 90% to assure that the command potential is reached within microseconds with a voltage error<2 mV. Leak currents are subtracted by using an online P/4 procedure and all currents are low-pass Bessel filtered at 5 kHz and digitized at 50 kHz. […]
Tonic block of peak current is measured using a step to −10 mV (20 ms) from a holding potential of −120 mV (0.2 Hz). Use-dependent block of peak current is measured during pulse number 300 of a pulse train (−10 mV, 5 ms, 300 pulses, 10 Hz or 25 Hz) from a holding potential of −120 mV. […]
For use-dependent studies, cells are stimulated with depolarizing pulse trains (−10 mV, 5 ms, 300 pulses, 10 and 25 Hz) from a holding potential of −120 mV. Currents are then normalized to the peak current recorded in response to the first pulse in each frequency train. For tonic block studies, peak current is evaluated in response to a 20 ms depolarization to −10 mV (0.2 Hz). […]

- inhibition at 1 µM [1]: 9%
- inhibition at 1 µM [2]: 25%
Structure (SMILES): O=C1c2cc(-c3ccc(C(F)(F)F)cc3)ccc2OCCN1Cc1ncccn1 [II-61, 4-(pyrimidin-2-ylmethyl)-7-(4-(trifluoromethyl)phenyl)-3,4-dihydrobenzo[f][1,4]oxazepin-5(2H)-one]

From US9676760B2, “Fused heterocyclic compounds as ion channel modulators” (Gilead Sciences, Inc., priority 2011, dated 2017)
